Values of other authors as cited in patent US8846744B2, “Pharmaceutical compositions of co-crystals of tramadol and coxibs” (Laboratorios del Dr. Esteve, S.A., priority 2010, dated 2014).

Conditions: in-vivo; compared to celecoxib alone and to physical mixture of celecoxib and tramadol

In the case of (rac)-tramadol.HCl-celecoxib (1:1), the “bio-availability regarding celecoxib exposure” value is listed as “improved bio-availability”.
